AlphaSeq binding of Ab-14 heavy chain variants to a spike HR2 peptide

Data: MIT Lincoln Laboratory AlphaSeq set, Engelhart et al. 2022, doi:10.1038/s41597-022-01779-4, as distributed in FLAb.

Target: peptide PDVDLGDISGINAS, taken from heptad repeat 2 (HR2) of SARS-CoV-2 spike.

Parent scFv Ab-14: VH joined to VL by a 15-residue (Gly4Ser)3 linker. Changes lie in the heavy chain CDRs alone.
VH: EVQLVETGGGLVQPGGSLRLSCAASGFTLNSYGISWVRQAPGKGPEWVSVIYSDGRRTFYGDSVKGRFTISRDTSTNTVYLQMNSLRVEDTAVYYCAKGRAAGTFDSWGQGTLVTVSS
VL: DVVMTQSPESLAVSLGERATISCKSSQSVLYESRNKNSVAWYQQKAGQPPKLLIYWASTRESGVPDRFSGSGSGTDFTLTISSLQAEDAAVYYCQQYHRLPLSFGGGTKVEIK

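The parent was found by panning a naive human phage display library on the peptide. AAYL49 was designed without a model: most single CDR substitutions and a random sample of double and triple ones. The scFvs were displayed on barcoded MATa yeast, the peptide on MATalpha yeast. Binding brings cells together so that they mate, and sequencing counts the barcode pairs among the diploids. Read counts were normalised to the haploid input and turned into Kd by a linear fit to BCL2-family pairs of known affinity, for each replicate. The assay was run in three technical replicates.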

Variants are written as CDR1, CDR2 and CDR3 of the heavy chain (limits as in the source). Parent: GFTLNSYGIS, VIYSDGRRTFYGDSVK, GRAAGTFDS.
Affinities are written as log10 Kd with Kd in nM; a lower number is a better binder.
The mean shown is taken over the replicates in which the pair was detected.
"no signal" means that the variant was in the library but no mating with the target was seen in any replicate; the authors take this as a sign of poor binding, and no number exists.
Empty control strains, which show no peptide, gave a signal in 15% of pairings with library AAYL49; the median was 4.06 and 95% of these signals were weaker than 2.83. No background was subtracted.

CDR-H1,CDR-H2,CDR-H3,"mean, log10 nM",detected
QFTLNSYGRS,VIYSDGRRTFYGDSVK,GRAAGTFYS,4.65,2/3
GDTLNSYGIS,VIYSDGRRTFYGDSSF,GRAAGTFDS,no signal,0/3
GFTLTSYGIS,VIYSDCRRTFYGDSVK,GRAAYTFDS,no signal,0/3
GFMLNSYGIS,VIYSDGRRTFYGDSVK,GRAASTQDS,3.54,1/3
QFTLNSYGIS,VIYSDGRRTFYGDSVK,GRAAGTNVS,3.71,1/3
GFTANSYGIF,VIYSDGRRTFYGDSVK,GRAAGTFDS,no signal,0/3
CFTLNSYGIS,VIYSDGRRTFYGRSAK,GRAAGTFDS,4.65,2/3
GFTHNSYGIS,VIYSLGRRTFYGDSVK,GRAAGFFDS,4.10,1/3
GFTLNKYGIS,VIYSDGERTFYGDSVK,GRAAGTVDS,2.00,3/3
GFTLNSYGIS,VIYSDGFFTFYDDSVK,GRAAGTFDS,5.06,3/3
GFTLNSYGIS,VWYSVGRRTFYGDSVK,GRAAGAFDS,3.66,1/3
GFTLNFYGIS,VMYSFGRRTFYGDSVK,GRAAGTFDS,no signal,0/3
GFTLNLYGIS,AIYSDGRRTIYGDSVK,GRAAGTFDS,2.71,3/3
GFTQNSYMIS,VIYSDGRRTFYSDSVK,GRAAGTFDS,no signal,0/3
IFTLNSYGCS,VIYSDGRRTFYGDSVK,GRAAVTFDS,no signal,0/3
GFTLNSYGIS,VGYSDGRRTLYGDSVK,GRAAGTGDS,no signal,0/3
GFTHNSYGIS,VIYSDGRRTFYGWSVK,GRAAGTCDS,no signal,0/3
GFTLNSYGIG,VITSDGRRTFYGDSVK,GRAAGTFDE,no signal,0/3
GFTLNSYLIS,VIYSPGRRTNYGDSVK,GRAAGTFDS,no signal,0/3
GFTLNSYGIS,VRYSDGRRTFYGDSVK,TRAANTFDS,no signal,0/3
GFTLNSYGIS,VLHSDGRRTFYGDSVK,GRAAGKFDS,no signal,0/3
GFTLNSYGQS,VIYSDGRRTFYGDSVK,GRAWGPFDS,4.19,1/3
GFTLNSYGIS,VIYSDGRRTFYGDSVF,GRTAWTFDS,no signal,0/3
GFTLNSYGWS,VDYSDGRITFYGDSVK,GRAAGTFDS,no signal,0/3
GFTLNSYGIS,RIYSDGRRTFYGDPVK,GRAAGTFDT,4.11,2/3
GFTCNSYGIS,VIYKDGRRTFYGDSVK,GRAASTFDS,4.13,1/3
GFTINSYGIS,VIESDGRRTFYGDSVK,DRAAGTFDS,4.53,2/3
GFTLNSYGIS,VIYSDGERTFYQDSVK,GRAAWTFDS,no signal,0/3
GFTLNSYGIS,VPYSDGRTTFYGDSVK,GRAAGTFLS,no signal,0/3
GFTLNSYGIS,VIYSDDRRTFYGDSVK,GRAAGTFDP,no signal,0/3
GFTKNSYGIS,VIYSDGTRTFYGDSCK,GRAAGTFDS,5.44,1/3
GFTLNSYGII,VIYSDGRRTFYGDSVK,GRTAGTFDS,5.01,1/3
GITLNSKGIH,VIYSDGRRTFYGDSVK,GRAAGTFDS,3.75,1/3
GFTLNSYGIS,VIYSDGRRSFYGKSVK,GRAFGTFDS,no signal,0/3
GFTLNSYGIS,VIYSDGRRTFYGDSVW,GRAWRTFDS,no signal,0/3
VFTLWSYGIS,VIYSDGRRTFYGDSVK,GRAAGKFDS,4.05,2/3
GFYLNSYGIS,VIYSDGRRFFYGDSVK,GRAAGTDDS,2.09,1/3
GFTLNSYGIK,FIYSDGRRTFYGDSVK,GRDAGTFDS,no signal,0/3
GFTLNSYGIS,VIYSDGRRTFFGDSVK,GRAAGTFDI,2.25,3/3
GFTLNSYGIT,VIYSDGRRTFYGDSVK,GRVAGQFDS,no signal,0/3
GFTLNSPGIS,VIYSDIQRTFYGDSVK,GRAAGTFDS,no signal,0/3
GFTLNSYGIS,VIYSDGRRTFLGHSVK,GRAAGCFDS,3.53,2/3
GFTLNSGGIS,VIYSDGRRAFYGDSVK,GRAAGAFDS,no signal,0/3
GYTLNSYGIS,VIYSDGRRTFYTDSTK,GRAAGTFDS,3.55,1/3
GFTLNSYGIS,VIYSDGRRTFYGDSVK,WRAAGTKPS,0.68,3/3
GFTLNSYGIF,VIYSDGRETFYGDSVK,GRAAVTFDS,5.00,1/3
GFTLNSIGIS,VIYSDGRATFRGDSVK,GRAAGTFDS,no signal,0/3
GFTLNSYGQS,VIYSWGRRTFYGDSVK,GRAAGTFDS,3.81,2/3
GSTLNSYGIS,VIYSDGRMTFYGDSVR,GRAAGTFDS,3.99,2/3

From the list, the first 4 with no signal in any replicate:

CDR-H1,CDR-H2,CDR-H3,"mean, log10 nM",detected
GDTLNSYGIS,VIYSDGRRTFYGDSSF,GRAAGTFDS,no signal,0/3
GFTLTSYGIS,VIYSDCRRTFYGDSVK,GRAAYTFDS,no signal,0/3
GFTANSYGIF,VIYSDGRRTFYGDSVK,GRAAGTFDS,no signal,0/3
GFTLNFYGIS,VMYSFGRRTFYGDSVK,GRAAGTFDS,no signal,0/3